In the NIST ThermoML archive (doi:10.1016/j.jct.2013.09.007):

Test: activity coefficient (dimensionless); of the first substance listed, at infinite dilution; xn = mol fraction of the nth substance listed
Details: 101 kPa, Liquid, Chromatography, x1 = 0

CCCCOCCCC [dibutyl ether] + CCCC[n+]1cccc(C)c1.N#C[N-]C#N
Details	activity coefficient
308.15 K	41.9
318.15 K	39.2
328.15 K	37.1
338.15 K	35.1
348.15 K	34
358.15 K	32
368.15 K	30.8
